{
  "source": "PubChem BioAssay AID504580",
  "about": "(NMMLSC, 2011)",
  "note": "The entries are a selection whose mix differs from that of the whole data set. The source made the active and inactive calls.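 How the source made its calls: active means compounds that quench the bead-bound fluorescent RNA probe, cutting fluorescence to under half of the solvent control; inactive means the rest.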",
  "data": [
    {"test": "fluorescent RNA aptamer quenching, single concentration, confirmation, artefact control for GRK2 RNA aptamer inhibitor project, biochemical, single point, cherry pick 1, flow cytometry (AID 504580);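 further: counterscreen run without GRK2 so only probe quenching by compound is measured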", "details": "Carboxyfluorescein RNA aptamer on beads, at 10 µM, stronger effect = lower value", "values": [
      {"smiles": "CC(C)(C)OC(=O)N1CCC(N(C(=O)c2ccccc2)c2ccc(Cl)cc2)CC1", "fluorescence response (% of DMSO)": "inactive: 99.3%"}
    ]}
  ]
}
